In the supplement of paper PMC13380429:

Tests used:
Caco-2 [1] = assay: cell viability relative to DMSO; higher = less toxic; settings: 72 h
Calu-3 [2] = assay: as above; settings: 72 h
HepG2 [3] = assay: as above; settings: 72 h
U2OS [4] = assay: as above; settings: 72 h
Vero E6 [5] = assay: as above; settings: 72 h
A549-ACE2 = assay: drug-induced phospholipidosis relative to tamoxifen; higher = more phospholipidosis
Caco-2 [6] = assay: relative viability EC50 (midpoint between 100% and the lowest measured viability); higher = less toxic; settings: 72 h
Calu-3 [7] = assay: as above; settings: 72 h
HepG2 [8] = assay: as above; settings: 72 h
U2OS [9] = assay: as above; settings: 72 h
Vero E6 [10] = assay: as above; settings: 72 h
Caco-2 [11] = assay: drug sensitivity score (DSS) for viability; higher = more toxic; extreme values may be limits of the assay; settings: 72 h
Calu-3 [12] = assay: as above; settings: 72 h
HepG2 [13] = assay: as above; settings: 72 h
U2OS [14] = assay: as above; settings: 72 h
Vero E6 [15] = assay: as above; settings: 72 h

N=C(N)NCCC[C@H](N)C(=O)NCC(=O)N[C@@H](CC(=O)O)C(=O)N[C@@H](CO)C(=O)O [DU-728]
cell viability [%]
Settings	Caco-2 [1]	Calu-3 [2]	HepG2 [3]	U2OS [4]	Vero E6 [5]
1 nM	113	103	93.4	99.3	105
10 nM	104	105	97.2	93.8	115
100 nM	106	98.8	100	93.5	103
1000 nM	96	102	98.9	94.5	99.6
10000 nM	111	107	98.8	96.3	88.6

drug-induced phospholipidosis [%], A549-ACE2
Settings	0.3 µM	0.833333 µM	3.33333 µM	6.66667 µM	10 µM	30 µM
24 h	-2.92	-4.44	-4.24	-3.18	-0.55	6.43
48 h	1.6	-0.97	-0.23	-0.87	0.85	7.09
72 h	4.67	-3.31	1.34	-4.1	-3.08	2.99

Settings	drug sensitivity score	relative viability EC50 [µM]
Caco-2 [6]	–	> 10
Caco-2 [11]	0	–
Calu-3 [7]	–	> 10
Calu-3 [12]	0	–
HepG2 [8]	–	> 10
HepG2 [13]	0	–
U2OS [9]	–	> 10
U2OS [14]	0	–
Vero E6 [10]	–	> 10
Vero E6 [15]	0	–
